From patent US20260022143A1, “Cyclic Peptide Inhibitors of IL-23” (JANSSEN PHARMACEUTICA NV, priority 2022, published 2026)

How the values were obtained:
IL-23R = target: T1, IL-23R (Homo sapiens, UniProt Q5VWK5); assay: IL23R Reporter Assay; format: cell-based; details: read-out: IL23R Reporter Assay (micromolar); HEK293 cells containing IL-23R, IL-12RP1 and STAT-inducible firefly luciferase reporter; 10 ng/mL IL-23 (EC90); 5 h at 37° C.
T1 construct: host or cells: HEK293
T1 sequence (Q5VWK5 24-629): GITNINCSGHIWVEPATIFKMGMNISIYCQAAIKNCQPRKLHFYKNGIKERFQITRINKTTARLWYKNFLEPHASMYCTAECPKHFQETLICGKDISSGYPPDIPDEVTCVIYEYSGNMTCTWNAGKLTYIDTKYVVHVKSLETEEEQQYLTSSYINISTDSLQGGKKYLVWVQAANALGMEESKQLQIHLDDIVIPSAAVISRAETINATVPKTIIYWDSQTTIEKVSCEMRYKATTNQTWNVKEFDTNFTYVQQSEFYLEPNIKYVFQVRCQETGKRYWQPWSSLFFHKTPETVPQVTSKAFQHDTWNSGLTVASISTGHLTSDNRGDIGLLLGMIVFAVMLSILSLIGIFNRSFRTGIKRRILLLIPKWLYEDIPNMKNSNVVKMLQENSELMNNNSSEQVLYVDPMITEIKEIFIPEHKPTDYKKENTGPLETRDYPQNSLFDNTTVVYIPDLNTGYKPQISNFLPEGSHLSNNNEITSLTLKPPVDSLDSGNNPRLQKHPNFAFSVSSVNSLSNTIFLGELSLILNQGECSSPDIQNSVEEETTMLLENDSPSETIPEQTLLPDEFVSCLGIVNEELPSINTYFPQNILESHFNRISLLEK

[1] = Exposed Polar Surface Area (EPSA); format: physicochemical; details: SFC on Chirex 3014 column; sample 1 mM DMSO stock
From the text: Exposed Polar Surface Area (EPSA) is an experimental descriptor of molecular polarity obtained from chromatographic retention in supercritical fluid chromatography (SFC).
The stationary phase (Chirex 3014(S)-valine and (R)-1-(alpha-naphthyl) ethylamine) was selected for its balance of lipophilic and polar attributes and its capacity to separate compounds with wide polarity differences. The mobile phase consists of methanol (+Ammonium formate) and CO2. Polar compounds are retained stronger under these conditions and a low-slope gradient of methanol achieves elution based on increasing polarity of the mobile phase. Results are normalized using calibration standards generating a linear relationship between retention times and EPSA values. The unit of EPSA is Å^2.
Along with the measurement of compounds of interest, a series of 8 calibration standards (see Materials) are analyzed generating a linear relationship between retention times and EPSA value. The 8 compounds used as calibration standard have their own EPSA value defined by G. Goetz based on the comparison with TPSA (see G. Goetz, L. Philippe and M. Shapiro, “EPSA: A novel supercritical fluid chromatography technique enabling the design of permeable cyclic peptides,” ACS Med. Chem. Lett., vol. 5, pp. 1167-1172, 2014 for more information). The slope from the linear relationship between EPSA values of these eight compounds and their retention times is used to determine the EPSA value of each compound of interest that's measured under the same condition using the equation as below: […]
The mixture of calibrations standard is reinjected every 20 compounds to validate the stability of the retention time.
The mobile phase modifier consists of ammonium formate LC_MS grade (>99%) (CAS number 540-69-2) diluted to 20 mM in HPLC grade Methanol (MeOH, CAS number 67-56-1) and liquid C02 SFC grade (CAS number 124-38-9).
Antipyrine (CAS number: 60-80-0) Chlorpromazine hydrochloride (CAS number: 69-09-0), desipramine hydrochloride (CAS number: […]), pindolol (CAS Number: 13523-86-9), diclofenac (CAS number: 15307-79-6)), m-nitro benzoic acid (CAS number: 121-92-6), bumetanide (CAS number: 28395-03-1), furosemide (CAS number: 54-31-9) were purchased from Sigma Aldrich (Steihneim, Germany).
All analyses were performed on a ultra performance convergence chromatography (UPC™) apparatus (Waters, Milford, MA, USA) equipped with a sample manager, a binary solvent delivery pump (BSM), a column manager, a convergence manager (automated back pressure regulator), a photo diode array detector (DAD) with a high pressure flow cell, and a mass detector simple quadrupole QDa. After the UV detector, the effluent of the SFC was mixed with an eluent consist of mixture MeOH/water (+0.3% Ammonia) 95/5 delivered by a make up pump with a flow rate of 0.4 mL/min and then split to the QDa using a splitter. The instrument was controlled, and data were processed with Masslynx 4.1.
The Analyses were performed using a 4.6×50 mm Chirex 3014(S)-valine and (R)-1-(alpha- naphthyl) ethylamine column (Phenomenex, Le Pecq, France) with 5 um particle and 100A pore size. The flow rate was 4 mL/min with the outlet pressure set to 14 MPa. The injection volume was 2 μL. the mobile phase composition was varied from 5% to 60% modifier at 20%/ min in a linear gradient, holding at 60% for 1.45 min and reverting to the original 5% until the end of the run. Data are acquired during 5 min. An equilibration time of 1 min is applied between 2 injections resulting in an injection every 6 min. each sample is analyzed in duplicate, resulting in a sample to sample turnaround time of 12 min.
The column temperature was set to 35° C. The mass detector was used in full scan from 100 to 800 for small molecules and from 500 to 1200 for peptides.
Each sample is delivered by compound logistics from DMSO stock solution without dilution. The concentration is 1 mM and the volume is 60 μL.

| Substance | IC50 (IL-23R) | EPSA [1] |
| --- | --- | --- |
| cPEG3aCO-Pen(3)-n-T-7MeW-K(NMeAc)-Pen(3)-APEG3F-2Nal-THP-K(NMeAc)-N-3Pya-Sar-CON(Me)2 [compound 240] | 0.003 µM | 143.71 Å^2 |
| cPEG3aCO-Pen(3)-n-T-7MeW-K(NMeAc)-Pen(3)-TMAPF-2Nal-THP-K(NMeAc)-N-3Pya-Sar-CON(Me)2 [compound 299] | 0.0019 µM | 157.14 Å^2 |
| cPEG3aCO-Pen(3)-n-T-7MeW-K(NMeAc)-Pen(3)-TMAPF-2Nal-THP-K(NMeAc)-N-3Pya-Sar-CONH2 [compound 188] | 0.0023 µM | 146.8 Å^2 |
| cPEG3aCO-k(PEG2PEG2gEC12)-Pen(3)-N(N(Me)2)-T-7MeW-K(NMeAc)-Pen(3)-TMAPF-2Nal-THP-K(NMeAc)-N-3Pya-Sar-CON(Me)2 [compound 378] | 0.0062 µM | 149.15 Å^2 |
| cPEG3aCO-k(PEG2PEG2gEC12)-Pen(3)-N(N(Me)2)-T-7MeW-K(PEG2PEG2gEC12)-Pen(3)-TMAPF-2Nal-THP-K(NMeAc)-N-3Pya-Sar-CON(Me)2 [compound 382] | 0.23 µM | 176.03 Å^2 |
| cPEG3aCO-k(PEG2PEG6gEC12)-Pen(3)-N(N(Me)2)-T-7MeW-K(Ac)-Pen(3)-TMAPF-2Nal-THP-K(NMeac)-N-3Pya-NMeK(PEG2PEG6gEC12)-CONH2 [compound 370] | 0.061 µM | 186.97 Å^2 |
| cPEG5aCO-Pen(3)-N(N(Me)2)-t-7MeW-Dab(NMeAc)-Pen(3)-AEF-2Nal-THP-Dab(NMeAc)-N-3Pya-Sar-CON(Me)2 [compound 140] | 0.003 µM | 148.3 Å^2 |
